# Experiments:
# Sequences of proteins named here, by UniProt entry; tags and fusion partners are left off.
# UniProt P01375, whole entry: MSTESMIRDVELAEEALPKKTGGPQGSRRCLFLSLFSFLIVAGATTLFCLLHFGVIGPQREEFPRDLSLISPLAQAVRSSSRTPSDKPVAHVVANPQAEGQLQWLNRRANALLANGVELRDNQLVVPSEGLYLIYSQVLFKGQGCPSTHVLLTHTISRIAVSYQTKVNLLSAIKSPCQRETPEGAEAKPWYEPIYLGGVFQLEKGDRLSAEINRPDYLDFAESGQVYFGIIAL
# [1] = molecular target: T1, FLAG-tagged human tumor necrosis factor α (FLAG-hTNFα) (Homo sapiens, UniProt P01375); assay: SPR; Biacore T200; mAb held by anti-hIgG capture antibodies amine-coupled to a CM5 chip; purified antigen serially diluted in HBS-EP+ (100, 33.3, 11.1, 3.7, 1.23, 0.412 nM) injected 240 s at 30 µL/min, 300 s dissociation; 1:1 Langmuir binding model with mass transfer; KD calculated as kd/ka; settings: both partners purified
# T1 construct: human tumor necrosis factor α
# [2] = molecular target: T2, FLAG-tagged human vascular endothelial growth factor-A (FLAG-hVEGF-A) (Homo sapiens, UniProt P15692-4); assay: as above; settings: both partners purified
# T2 construct: human vascular endothelial growth factor-A; The cell-based assays used bought recombinant hVEGF165 (Pepro Tech), not this construct
Kd [2] [nM],Binder,binding result [1]
0.0149,"anti-hVEGF-A clone C018AM-20 (affinity-matured from C018) (antibody, V domains shown) VH: EVQLLESGGGLVQPGGSLRLSCAASGFTFSSYAMSWVRQAPGKGLEWVSSISGSGGNTYYADSVKGRFTISRDNSKNTLYLQMNSLRAEDTAVYYCAKDTERIQLWLGFDYWGQGTPVTVSS VL: DIQMTQSPSSLSASVGDRVTITCRASESISSYLAWYQQKPGKAPKLLIYAPSNLESGVPSRFSGSGSGTDFTLTINSLQPEDFATYYCQQYYSTPLTFGQGTKLEIK",–
1.61,"anti-hVEGF-A clone C018 (antibody, V domains shown) VH: not shown VL: DIQMTQSPSSLSASVGDRVTITCRASESISSYLAWYQQKPGKAPKLLIYAPSNLESGVPSRFSGSGSGTDFTLTINSLQPEDFATYYCQQYYSTPLTFGQGTKLEIK",–

# The next lines start with the binder.
Binder,Kd [2] [nM],binding result [1]
"anti-human TNFα clone #314AM-043-01 (after two rounds of affinity maturation of #314) (antibody, V domains shown) VH: EVQLLESGGGLVQPGGSLRLSCAASGFTFSSYAMSWVRQAPGKGLEWVSAISSSSGGSTYYADSVKGRFTISRDNSKNTLYLQMNSLRAEDTAVYYCARSIVGATLDFDYWGQGTTVTVSS VL: DIQMTQSPSSLSASVGDRVTITCRASQSISDYLHWYQQKPGKAPKLLIYDASNLESGVPSRFSGSGSGTDFTLTINSLQPEDFATYYCQQYYSTPLTFGQGTKLEIK",–,binds
"anti-human TNFα clone #314 (antibody, V domains shown) VH: not shown VL: DIQMTQSPSSLSASVGDRVTITCRASQSISDYLHWYQQKPGKAPKLLIYDASNLESGVPSRFSGSGSGTDFTLTINSLQPEDFATYYCQQYYSTPLTFGQGTKLEIK",–,binds

# Source: PMC8166883 (Cellular and Molecular Immunology, 2020)
